Measurements from the supplement of paper PMC11403291.

Chains of the proteins cited; added tags and fusions are not shown. Lines headed by an entry give the natural chain unless they say otherwise; changes in a name come on top.
UniProt Q9Y2K2: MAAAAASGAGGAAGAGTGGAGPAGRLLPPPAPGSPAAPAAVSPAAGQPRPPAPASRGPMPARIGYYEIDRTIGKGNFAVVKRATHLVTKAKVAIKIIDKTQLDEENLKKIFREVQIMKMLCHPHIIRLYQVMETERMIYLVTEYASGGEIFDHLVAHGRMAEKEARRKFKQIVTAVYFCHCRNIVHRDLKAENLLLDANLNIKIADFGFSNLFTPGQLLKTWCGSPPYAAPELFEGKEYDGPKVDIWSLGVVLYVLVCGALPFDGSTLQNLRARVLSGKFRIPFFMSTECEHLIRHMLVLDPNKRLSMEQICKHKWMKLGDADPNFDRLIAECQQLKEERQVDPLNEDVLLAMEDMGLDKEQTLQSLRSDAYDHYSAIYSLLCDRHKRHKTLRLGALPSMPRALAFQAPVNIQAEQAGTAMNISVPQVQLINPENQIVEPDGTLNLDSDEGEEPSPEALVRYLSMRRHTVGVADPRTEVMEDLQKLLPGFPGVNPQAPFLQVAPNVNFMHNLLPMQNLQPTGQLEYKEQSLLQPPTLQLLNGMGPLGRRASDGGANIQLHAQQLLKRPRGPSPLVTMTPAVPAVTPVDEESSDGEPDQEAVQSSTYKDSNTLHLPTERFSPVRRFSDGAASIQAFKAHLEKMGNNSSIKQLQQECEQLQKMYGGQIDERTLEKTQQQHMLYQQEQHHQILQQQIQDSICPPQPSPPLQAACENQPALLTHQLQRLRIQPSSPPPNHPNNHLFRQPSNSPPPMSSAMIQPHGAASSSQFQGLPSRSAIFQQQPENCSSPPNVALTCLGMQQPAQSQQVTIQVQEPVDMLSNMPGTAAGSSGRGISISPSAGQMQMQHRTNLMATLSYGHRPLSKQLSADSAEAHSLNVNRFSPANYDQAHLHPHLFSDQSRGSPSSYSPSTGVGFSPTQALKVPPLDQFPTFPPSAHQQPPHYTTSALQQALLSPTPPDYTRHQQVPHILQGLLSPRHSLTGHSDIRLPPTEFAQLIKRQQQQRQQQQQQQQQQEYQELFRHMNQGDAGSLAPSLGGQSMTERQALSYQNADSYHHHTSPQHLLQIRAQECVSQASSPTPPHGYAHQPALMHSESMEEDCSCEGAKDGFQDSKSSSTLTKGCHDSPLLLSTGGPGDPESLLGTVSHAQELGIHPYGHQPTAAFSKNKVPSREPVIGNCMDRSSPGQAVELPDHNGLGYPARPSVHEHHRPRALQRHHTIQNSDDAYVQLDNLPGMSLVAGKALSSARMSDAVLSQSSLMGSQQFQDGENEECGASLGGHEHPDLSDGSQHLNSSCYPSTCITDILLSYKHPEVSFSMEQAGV
UniProt Q08345: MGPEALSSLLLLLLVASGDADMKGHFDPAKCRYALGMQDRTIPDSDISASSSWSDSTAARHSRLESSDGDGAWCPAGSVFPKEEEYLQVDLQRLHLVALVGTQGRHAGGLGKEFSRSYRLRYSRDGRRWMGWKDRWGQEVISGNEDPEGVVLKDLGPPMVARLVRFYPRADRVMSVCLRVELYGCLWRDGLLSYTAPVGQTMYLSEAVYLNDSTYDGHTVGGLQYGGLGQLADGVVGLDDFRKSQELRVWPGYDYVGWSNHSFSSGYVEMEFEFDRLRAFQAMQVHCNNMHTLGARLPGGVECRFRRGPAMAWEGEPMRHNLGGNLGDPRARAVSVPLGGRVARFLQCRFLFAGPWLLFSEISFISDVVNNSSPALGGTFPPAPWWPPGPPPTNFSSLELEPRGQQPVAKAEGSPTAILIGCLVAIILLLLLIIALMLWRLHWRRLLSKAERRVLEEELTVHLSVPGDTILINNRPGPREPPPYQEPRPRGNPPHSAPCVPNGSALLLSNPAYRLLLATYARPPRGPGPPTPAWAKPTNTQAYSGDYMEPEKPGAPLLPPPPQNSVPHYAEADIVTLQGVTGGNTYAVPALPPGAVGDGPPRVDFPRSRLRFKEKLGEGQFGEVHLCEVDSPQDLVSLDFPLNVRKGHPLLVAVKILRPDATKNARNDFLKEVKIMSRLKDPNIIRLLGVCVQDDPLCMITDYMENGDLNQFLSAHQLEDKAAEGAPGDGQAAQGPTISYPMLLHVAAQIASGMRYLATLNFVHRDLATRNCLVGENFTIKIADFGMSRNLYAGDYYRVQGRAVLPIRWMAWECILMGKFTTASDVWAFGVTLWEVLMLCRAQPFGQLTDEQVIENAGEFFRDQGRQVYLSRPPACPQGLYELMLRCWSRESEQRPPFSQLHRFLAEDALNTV
UniProt P36894: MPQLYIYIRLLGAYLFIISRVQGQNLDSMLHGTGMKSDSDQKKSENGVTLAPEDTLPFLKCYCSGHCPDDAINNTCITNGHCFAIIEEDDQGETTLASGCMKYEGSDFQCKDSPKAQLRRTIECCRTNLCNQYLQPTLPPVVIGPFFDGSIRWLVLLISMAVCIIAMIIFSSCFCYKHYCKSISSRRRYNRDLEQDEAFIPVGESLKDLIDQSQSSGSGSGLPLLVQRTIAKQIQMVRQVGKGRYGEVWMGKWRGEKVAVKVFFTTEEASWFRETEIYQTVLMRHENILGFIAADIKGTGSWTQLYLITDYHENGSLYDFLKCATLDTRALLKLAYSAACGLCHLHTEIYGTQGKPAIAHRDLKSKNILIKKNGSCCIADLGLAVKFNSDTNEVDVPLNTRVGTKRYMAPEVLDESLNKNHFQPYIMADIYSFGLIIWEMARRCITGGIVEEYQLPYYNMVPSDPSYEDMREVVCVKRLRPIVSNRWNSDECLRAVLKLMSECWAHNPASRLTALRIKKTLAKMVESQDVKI
UniProt P12931, whole entry, looked up: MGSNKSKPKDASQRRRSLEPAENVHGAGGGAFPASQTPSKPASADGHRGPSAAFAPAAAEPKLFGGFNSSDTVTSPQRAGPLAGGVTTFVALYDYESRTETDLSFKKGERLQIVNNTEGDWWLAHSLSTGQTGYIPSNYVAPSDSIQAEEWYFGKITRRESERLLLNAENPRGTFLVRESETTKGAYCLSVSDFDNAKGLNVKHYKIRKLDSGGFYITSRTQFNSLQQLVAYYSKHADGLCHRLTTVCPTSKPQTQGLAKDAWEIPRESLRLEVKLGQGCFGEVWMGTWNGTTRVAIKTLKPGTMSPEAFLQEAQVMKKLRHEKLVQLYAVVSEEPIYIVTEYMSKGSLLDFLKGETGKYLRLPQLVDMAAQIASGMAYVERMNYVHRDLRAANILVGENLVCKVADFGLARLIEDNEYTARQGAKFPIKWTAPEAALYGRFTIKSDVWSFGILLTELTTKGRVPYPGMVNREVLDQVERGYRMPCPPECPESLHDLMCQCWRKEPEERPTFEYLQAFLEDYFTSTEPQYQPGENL
UniProt Q8NI60: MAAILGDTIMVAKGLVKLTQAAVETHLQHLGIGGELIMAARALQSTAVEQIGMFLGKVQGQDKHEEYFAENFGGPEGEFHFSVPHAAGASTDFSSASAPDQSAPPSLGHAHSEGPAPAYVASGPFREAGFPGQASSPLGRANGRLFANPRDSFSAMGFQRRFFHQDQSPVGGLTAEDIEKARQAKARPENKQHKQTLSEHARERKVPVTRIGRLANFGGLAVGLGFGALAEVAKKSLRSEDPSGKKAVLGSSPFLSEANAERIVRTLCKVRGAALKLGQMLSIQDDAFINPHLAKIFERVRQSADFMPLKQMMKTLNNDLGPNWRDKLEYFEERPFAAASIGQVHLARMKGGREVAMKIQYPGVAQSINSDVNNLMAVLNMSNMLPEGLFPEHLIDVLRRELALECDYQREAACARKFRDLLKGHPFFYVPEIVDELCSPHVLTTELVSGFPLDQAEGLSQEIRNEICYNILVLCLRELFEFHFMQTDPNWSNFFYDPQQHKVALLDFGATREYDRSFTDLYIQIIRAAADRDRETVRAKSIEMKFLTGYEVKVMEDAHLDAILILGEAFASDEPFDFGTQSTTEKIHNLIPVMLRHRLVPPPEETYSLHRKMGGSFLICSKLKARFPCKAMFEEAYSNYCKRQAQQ
UniProt P30291: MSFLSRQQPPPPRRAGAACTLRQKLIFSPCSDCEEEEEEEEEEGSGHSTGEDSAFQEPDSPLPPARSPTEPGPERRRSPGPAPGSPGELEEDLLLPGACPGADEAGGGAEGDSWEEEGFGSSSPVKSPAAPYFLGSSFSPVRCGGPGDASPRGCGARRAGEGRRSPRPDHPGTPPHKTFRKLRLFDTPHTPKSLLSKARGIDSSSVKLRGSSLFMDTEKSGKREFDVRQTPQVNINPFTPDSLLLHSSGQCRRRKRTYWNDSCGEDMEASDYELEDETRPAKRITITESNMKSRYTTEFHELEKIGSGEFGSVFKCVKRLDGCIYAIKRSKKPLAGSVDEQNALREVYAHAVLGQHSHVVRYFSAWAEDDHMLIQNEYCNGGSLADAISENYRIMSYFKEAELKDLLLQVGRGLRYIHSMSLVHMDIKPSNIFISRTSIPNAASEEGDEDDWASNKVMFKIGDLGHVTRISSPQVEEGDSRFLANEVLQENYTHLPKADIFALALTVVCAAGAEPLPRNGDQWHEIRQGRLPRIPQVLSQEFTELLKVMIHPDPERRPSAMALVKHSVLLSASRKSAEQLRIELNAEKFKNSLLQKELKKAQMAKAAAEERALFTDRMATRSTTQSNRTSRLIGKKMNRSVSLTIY

What was measured:
Assay in all cases: apparent dissociation constant pKd app (kinobead competition) (-log10(M)); higher = stronger binding
PIP4K2C = target: T1, PIP4K2C (UniProt Q8TBX8)
T1 sequence (whole entry): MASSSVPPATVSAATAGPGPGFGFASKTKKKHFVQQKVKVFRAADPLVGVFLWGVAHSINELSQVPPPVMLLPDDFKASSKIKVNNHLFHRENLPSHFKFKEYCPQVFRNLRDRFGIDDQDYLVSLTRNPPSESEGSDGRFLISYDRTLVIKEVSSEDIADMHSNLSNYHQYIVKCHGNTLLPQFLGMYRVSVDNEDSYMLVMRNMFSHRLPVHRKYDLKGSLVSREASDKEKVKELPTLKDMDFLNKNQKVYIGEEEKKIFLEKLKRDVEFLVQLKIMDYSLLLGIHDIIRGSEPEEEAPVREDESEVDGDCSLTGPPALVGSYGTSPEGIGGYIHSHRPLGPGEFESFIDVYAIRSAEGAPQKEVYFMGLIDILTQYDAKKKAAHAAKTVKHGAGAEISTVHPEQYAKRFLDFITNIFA

PKMYT1 = target: T2, PKMYT1 (UniProt Q99640)
T2 sequence (whole entry): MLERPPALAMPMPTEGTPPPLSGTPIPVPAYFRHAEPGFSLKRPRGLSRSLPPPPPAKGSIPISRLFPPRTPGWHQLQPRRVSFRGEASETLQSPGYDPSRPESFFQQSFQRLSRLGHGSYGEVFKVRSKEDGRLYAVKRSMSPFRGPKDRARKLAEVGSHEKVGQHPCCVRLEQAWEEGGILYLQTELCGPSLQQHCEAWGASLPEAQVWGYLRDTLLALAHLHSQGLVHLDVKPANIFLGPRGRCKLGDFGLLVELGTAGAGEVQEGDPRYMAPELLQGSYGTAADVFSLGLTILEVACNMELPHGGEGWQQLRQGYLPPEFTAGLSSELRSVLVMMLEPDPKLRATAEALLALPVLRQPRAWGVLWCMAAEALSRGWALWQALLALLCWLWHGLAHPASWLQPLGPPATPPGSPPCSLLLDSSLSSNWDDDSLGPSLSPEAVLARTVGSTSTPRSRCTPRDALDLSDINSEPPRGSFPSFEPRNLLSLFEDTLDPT

KIAA0999 = KIAA0999 (UniProt Q9Y2K2)
DDR1 = DDR1 (UniProt Q08345)
BMPR1A = BMPR1A (UniProt P36894)
MARK2 = target: T3, MARK2 (UniProt Q7KZI7)
T3 sequence (whole entry): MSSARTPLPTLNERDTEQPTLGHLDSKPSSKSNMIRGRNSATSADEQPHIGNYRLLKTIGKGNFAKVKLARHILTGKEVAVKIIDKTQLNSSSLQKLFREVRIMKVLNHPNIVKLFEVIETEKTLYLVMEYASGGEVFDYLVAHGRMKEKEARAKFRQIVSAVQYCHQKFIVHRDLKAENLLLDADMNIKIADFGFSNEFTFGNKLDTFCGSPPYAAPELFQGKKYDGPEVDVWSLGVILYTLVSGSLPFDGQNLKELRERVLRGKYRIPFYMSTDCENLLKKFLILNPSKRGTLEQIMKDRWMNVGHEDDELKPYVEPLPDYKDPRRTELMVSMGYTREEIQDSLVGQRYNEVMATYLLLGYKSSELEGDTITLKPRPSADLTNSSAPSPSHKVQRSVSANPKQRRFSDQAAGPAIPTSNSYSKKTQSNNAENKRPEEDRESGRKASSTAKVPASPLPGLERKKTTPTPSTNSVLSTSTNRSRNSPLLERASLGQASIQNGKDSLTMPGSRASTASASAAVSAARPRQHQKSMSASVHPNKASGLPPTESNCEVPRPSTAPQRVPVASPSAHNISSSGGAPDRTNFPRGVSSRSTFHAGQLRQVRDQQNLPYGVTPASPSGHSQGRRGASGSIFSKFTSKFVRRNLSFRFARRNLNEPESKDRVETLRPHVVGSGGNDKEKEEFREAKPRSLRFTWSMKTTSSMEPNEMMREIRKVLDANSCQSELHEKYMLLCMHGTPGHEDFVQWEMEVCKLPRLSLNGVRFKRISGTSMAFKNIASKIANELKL

SRC = SRC (UniProt P12931)
CABC1 = CABC1 (UniProt Q8NI60)
WEE1 = WEE1 (UniProt P30291)
MAPKAPK5 = target: T4, MAPKAPK5 (UniProt Q8IW41)
T4 sequence (whole entry): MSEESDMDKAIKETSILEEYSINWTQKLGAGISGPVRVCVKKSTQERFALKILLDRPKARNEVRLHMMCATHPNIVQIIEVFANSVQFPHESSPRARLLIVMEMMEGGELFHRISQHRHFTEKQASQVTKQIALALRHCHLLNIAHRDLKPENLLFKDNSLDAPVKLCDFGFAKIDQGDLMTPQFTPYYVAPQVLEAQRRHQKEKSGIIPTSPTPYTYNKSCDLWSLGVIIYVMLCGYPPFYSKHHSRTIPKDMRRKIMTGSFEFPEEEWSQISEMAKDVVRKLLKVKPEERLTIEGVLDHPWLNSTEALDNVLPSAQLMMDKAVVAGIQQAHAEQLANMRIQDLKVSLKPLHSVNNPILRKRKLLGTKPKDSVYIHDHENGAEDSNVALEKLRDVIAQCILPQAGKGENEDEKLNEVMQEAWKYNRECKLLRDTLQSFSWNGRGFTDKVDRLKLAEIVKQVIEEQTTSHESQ

SMILES	apparent dissociation constant pKd app (-log10) (PIP4K2C)	apparent dissociation constant pKd app (-log10) (PKMYT1)	apparent dissociation constant pKd app (-log10) (KIAA0999)	apparent dissociation constant pKd app (-log10) (DDR1)	apparent dissociation constant pKd app (-log10) (BMPR1A)	apparent dissociation constant pKd app (-log10) (MARK2)	apparent dissociation constant pKd app (-log10) (SRC)	apparent dissociation constant pKd app (-log10) (CABC1)	apparent dissociation constant pKd app (-log10) (WEE1)	apparent dissociation constant pKd app (-log10) (MAPKAPK5)
NC(=O)c1cccc2cn(-c3ccc([C@@H]4CCCNC4)cc3)nc12 [Niraparib]	< 4.6	< 4.5	< 4.6	< 4.6	< 4.8	< 4.6	< 4.8	< 4.6	< 4.8	< 4.5
Cn1ncnc1[C@H]1c2n[nH]c(=O)c3cc(F)cc(c23)N[C@@H]1c1ccc(F)cc1 [Talazoparib]	< 4.6	< 4.5	< 4.6	< 4.6	< 4.8	< 4.6	< 4.8	< 4.6	< 4.8	< 4.5
O=C(c1cc(Cc2n[nH]c(=O)c3ccccc23)ccc1F)N1CCN(C(=O)C2CC2)CC1 [Olaparib]	< 4.6	< 4.5	< 4.6	< 4.6	< 4.8	< 4.6	< 4.8	< 4.6	< 4.8	< 4.5
